# Screens (PubChem)
# Rows were chosen to be rich in hits. Some 4.2% of all compounds tested hit in one or more screens of this group.
# ALR inh = inhibitors of human ALR sulfhydryl oxidase, primary screen, biochemical, H2O2 detection, HRP-luminol luminescence, single point | FAD-linked sulfhydryl oxidase ALR (Homo sapiens), P55789 | purified ALR, DTT oxidation | inhibition, % (concentration not given with the values) | actives 3.8% (n = 290,000) | AID 485317, 2010;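 active = mean and each replicate at 75% or more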;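 also: stock transfer was 7.5 nL into about 7.5 µL; 0% = neutral wells and 100% = wells with inactivated enzyme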
# MC4R ag barr = agonists of human melanocortin 4 receptor (MC4R) beta-arrestin; activation, % at 8.9 µM; P32245; 360,000 tested, 0.98% active; AID 540308; U2OS MC4R beta-arrestin complementation, luminescence; percent of melanotan II response, DMSO zero;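 active = activation above a per-plate cutoff, the mean activation of sample wells on that plate plus 3 SD, cut at about 8% in these data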
# MC4R antagonist = blocks human MC4R cAMP signaling. P32245. MC4R-expressing cells, MTII-stimulated cAMP, LANCE TR-FRET. inhibition, % at 6.5 µM. 360,000 tested, 0.48% active. AID 540295;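 active = inhibition above its plate's cutoff, the mean of tested wells on that plate plus 3 SD, cut at about 29% in these data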;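 note: 0% = Melanotan II alone and 100% = Melanotan II plus saturating MCL0020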
#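 Material: human MC4R-expressing U2OS cells. Probe or stimulus: Melanotan II challenge. Dosing: 6.5 µM single dose. Times: 30-min compound, 1-h challenge, 1-h detection, room temperature. Technique: TR-FRET with Eu-cAMP and labeled anti-cAMP, 671 nm. Replication: singlicate.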
# HDAC3 inhib = inhibitors of human histone deacetylase 3 | inhibition, % at 8.3 µM | recombinant HDAC3, fluorogenic peptide/trypsin coupled, fluorescence | AID 2718 | O15379 | 320,000 tested, 0.15% active; in the data active = inhibition above about 26%, passing the limit was not always enough
# NALP1 yeast inh = NALP1 inhibition. 280,000 tested, 0.61% active. inhibition, % at 10 µM. S. cerevisiae NALP1/ASC/caspase-1 growth, X-gal OD620, 72 h; in the data active = inhibition mostly above about 24%, no sharp cut-off; inactive = mostly below about 32%
# Yeast UUG start = yeast start codon fidelity modulation; activity score, % at 18.7 µM; actives 0.13% (n = 350,000); S. cerevisiae UUG-firefly luciferase reporter, luminescence/redox ratio; AID 602363;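 active means replicate mean at a twofold rise or more, about +100% in these data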;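 further: firefly luciferase made from a UUG start codon reports start codon fidelity; reporter light over untreated wells divided by growth signal over untreated wells; some hits fall short of that in this replicate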
# Active calls of the source: *; . = not tested or not shown.
SMILES,ALR inh,MC4R ag barr,MC4R antagonist,HDAC3 inhib,NALP1 yeast inh,Yeast UUG start
COCC(=O)Nc1ccc2c(c1)OC[C@@H](C)N(CCC(F)(F)F)C[C@@H](C)[C@H](OC)CN(C)C2=O,.,.,.,.,.,6
C[C@@H]1CN([C@H](C)CO)C(=O)c2cccc(NC(=O)C3CCCCC3)c2O[C@@H]1CN(C)S(=O)(=O)c1cccs1,.,.,.,.,.,4
COc1ccc(OC)c(N(CC(=O)N2CCCC2)S(=O)(=O)c2ccccc2)c1,2,1,-1,0,10,-5
COC(=O)CN(c1cc(OC)ccc1OC)S(=O)(=O)c1ccc(OC)c(OC)c1,-5,1,1,-4,29*,36
Cc1noc(C)c1NC(=O)Nc1ccc2c(c1)C(=O)N([C@@H](C)CO)C[C@H](C)[C@@H](CN(C)C(=O)Nc1c(C)noc1C)O2,.,.,.,.,.,-1
Cc1c(Cc2ccccc2)sc(/N=C/c2c(O)ccc3ccccc23)c1C(N)=O,-19,10*,-2,-19,21,-7
C[C@@H]1CN([C@@H](C)CO)C(=O)c2cc(-c3cccnc3)cnc2O[C@@H]1CN(C)C(=O)C1CCCCC1,.,.,.,.,.,-7
Cc1noc(C)c1NC(=O)Nc1cccc2c1O[C@@H](CN(C)C(=O)NC1CCCCC1)[C@@H](C)CN([C@H](C)CO)C2=O,.,.,.,.,.,-10
C[C@@H]1CN([C@@H](C)CO)C(=O)Cc2cc(NC(=O)Cc3ccccc3)ccc2O[C@@H]1CN(C)C,.,.,.,.,.,-10
COc1cccc2c1C(=O)C=C(C)C2=O,-6,-3,-9,-2,96*,-16
C[C@@H]1CN([C@H](C)CO)C(=O)c2cc(NC(=O)CCC(F)(F)F)ccc2O[C@@H](C)CCCCO[C@H]1CN(C)S(=O)(=O)c1cccs1,.,.,.,.,.,23
CCCNC(=O)N[C@H]1CC[C@@H](CCn2cc(C3CCCC3)nn2)O[C@@H]1CO,.,.,.,.,.,-2
O=C1CC(Nc2ccccc2)C(=O)N1c1ccc(N2CCOCC2)cc1 (stereo unspecified),-9,1,-2,4,8,-16
CCc1ccc(NC2CC(=O)N(CCc3ccc(OC)c(OC)c3)C2=O)cc1 (stereo unspecified),-2,-1,13,9,4,-4
O=C(Nc1ccc(N2CCOCC2)cc1)NC1CCCCC1,11,-2,1,2,12,-30
CC(C)N1C(=O)CC(Nc2ccc(N3CCOCC3)cc2)C1=O (stereo unspecified),99*,0,7,3,6,-15
O=C1CC(Nc2ccc(N3CCOCC3)cc2)C(=O)N1c1ccccc1F (stereo unspecified),99*,-1,5,2,-52,-12
COc1ccc(CCN2C(=O)CC(Nc3ccc(N4CCOCC4)cc3)C2=O)cc1OC (stereo unspecified),99*,-1,9,8,.,-5
O=C1CC(Nc2ccc(N3CCOCC3)cc2)C(=O)N1C1CCCCC1 (stereo unspecified),99*,-1,0,-1,18,-57
O=C(Nc1ccc2c(c1)[C@H]1C[C@H](CC(=O)N3CCc4ccccc4C3)O[C@@H](CO)[C@H]1O2)NC1CCCC1,.,.,.,.,.,-9
CCC(=O)OCCNc1cc(Sc2nccn2C)c2nonc2c1[N+](=O)[O-],97*,-3,-24,2,33,.
CCC(=O)OCCNc1cc(SCCC(=O)OC)c2nonc2c1[N+](=O)[O-],3,1,14,8,26,.
C[C@H](CO)N1C[C@H](C)[C@@H](CN(C)C(=O)C2CCCCC2)Oc2cc(-c3ccc(C(=O)N(C)C)cc3)ccc2S1(=O)=O,.,.,.,.,.,19
C[C@@H]1CN([C@H](C)CO)C(=O)c2cc(C#CC3CC3)cnc2O[C@@H]1CN(C)S(C)(=O)=O,.,.,.,.,.,13
COCCNC(=O)C[C@H]1C[C@H]2c3cc(NC(=O)CC4CC4)ccc3O[C@H]2[C@@H](CO)O1,.,.,.,.,.,0

# Reprinted at random: two records from the list
SMILES,ALR inh,MC4R ag barr,MC4R antagonist,HDAC3 inhib,NALP1 yeast inh,Yeast UUG start
Cc1noc(C)c1NC(=O)Nc1ccc2c(c1)C(=O)N([C@@H](C)CO)C[C@H](C)[C@@H](CN(C)C(=O)Nc1c(C)noc1C)O2,.,.,.,.,.,-1
CC(C)N1C(=O)CC(Nc2ccc(N3CCOCC3)cc2)C1=O (stereo unspecified),99*,0,7,3,6,-15

# Compound profiles (already shown). Order of screens: ALR inh	MC4R ag barr	MC4R antagonist	HDAC3 inhib	NALP1 yeast inh	Yeast UUG start
# Results for `O=C(Nc1ccc(N2CCOCC2)cc1)NC1CCCCC1` : 11	-2	1	2	12	-30
# Results for `CCCNC(=O)N[C@H]1CC[C@@H](CCn2cc(C3CCCC3)nn2)O[C@@H]1CO` : .	.	.	.	.	-2
# Results for `COCC(=O)Nc1ccc2c(c1)OC[C@@H](C)N(CCC(F)(F)F)C[C@@H](C)[C@H](OC)CN(C)C2=O` : .	.	.	.	.	6

# Later entries
SMILES,ALR inh,MC4R ag barr,MC4R antagonist,HDAC3 inhib,NALP1 yeast inh,Yeast UUG start
CC(Sc1nc2ccccc2s1)C(=O)Nc1nnc(C(C)C)s1 (stereo unspecified),5,1,1,1,32,6
CCC(Sc1nc2ccccc2s1)C(=O)Nc1nnc(C)s1 (stereo unspecified),98*,0,4,-2,15,-3
CCC(Sc1nc2ccc(N)cc2s1)C(=O)Nc1nccs1 (stereo unspecified),99*,-1,3,-3,13,-9
C[C@H](CO)N1C[C@H](C)[C@@H](CN(C)S(=O)(=O)c2ccc(F)cc2)Oc2ccc(NC(=O)CCN3CCOCC3)cc2CC1=O,.,.,.,.,.,3
COc1ccc(CN(C)C[C@@H]2OCCCC[C@@H](C)Oc3ccc(NC(=O)c4ccccc4)cc3C(=O)N([C@@H](C)CO)C[C@H]2C)cc1,.,.,.,.,.,3
O=C(C[C@@H]1C[C@H]2c3cc(NC(=O)NC4CCCCC4)ccc3O[C@H]2[C@@H](CO)O1)NCc1ccncc1,.,.,.,.,.,-26
O=C(Cc1ccccn1)N[C@@H]1CC[C@H](CCNC(=O)c2cc(Cl)cc(Cl)c2)O[C@H]1CO,.,.,.,.,.,8
CCn1cnc2cc(NCc3ccc(C)cc3)ccc21,87*,-1,17,2,5,-22
CCn1cnc2cc(NCc3ccc(Br)cc3)ccc21,86*,.,.,-3,10,.
Cc1ccc(CNc2ccc3c(c2)ncn3C(C)C)cc1,93*,0,17,-2,.,.
CCCn1cnc2cc(NCc3ccc(Br)cc3)ccc21,44,-2,1,-1,0,-2
CC(C)n1cnc2cc(NCc3nc4ccccc4n3C)ccc21,53,-2,0,-5,24,-37
CCO[C@@H]1OC(C(=O)Nc2ccccc2)=C[C@H](c2cn(C(C)=O)c3ccccc23)[C@H]1CCCO,.,.,.,.,.,-2
CCCCCC1CCC(C(=O)O)CC1 (stereo unspecified),.,-2,1,1,27*,-17
CCCCC1CCC(/C(N)=N/O)CC1 (stereo unspecified),-9,-1,-4,2,-8,-4
CCC(=O)N(C)C[C@@H]1Oc2ncc(-c3ccc(C)cc3)cc2C(=O)N([C@H](C)CO)C[C@H]1C,.,.,.,.,.,-1
O=C(Nc1cc([N+](=O)[O-])ccc1O)c1ccc2c(c1)C(=O)N(Cc1ccco1)C2=O,98*,-1,11,13,11,-6
O=C(Nc1ccc(O)cc1C(=O)O)c1ccc2c(c1)C(=O)N(Cc1ccco1)C2=O,54,-2,9,5,7,0
O=C(Nc1ccc(O)cc1)c1ccc2c(c1)C(=O)N(Cc1ccco1)C2=O,100*,-1,-2,1,24,.
CCOc1ccc(NCc2cc3c(C(C)(C)C)nn(-c4ccccc4)c3[nH]c2=O)cc1,-10,11*,15,11,-9,-1
Cc1ccc(N2C(=O)/C(=C\c3ccco3)SC2=S)cc1,6,10*,10,0,-6,-15
COc1ccccc1C(=O)N1C[C@@H]2[C@H](c3ccccc31)[C@@H](CO)N2C(=O)C1CCCC1,.,.,.,.,.,0
